In US7192924B2, “Corticotropin releasing factor 2 receptor agonists” (priority 2002, dated 2007):

Assays:
CRF1R = target: T1, CRF1R (Homo sapiens, UniProt P34998); test: CRF1R agonist activity (EC50, Emax), called comparative CRF binding; format: cell-based
T1 sequence (P34998 24-415): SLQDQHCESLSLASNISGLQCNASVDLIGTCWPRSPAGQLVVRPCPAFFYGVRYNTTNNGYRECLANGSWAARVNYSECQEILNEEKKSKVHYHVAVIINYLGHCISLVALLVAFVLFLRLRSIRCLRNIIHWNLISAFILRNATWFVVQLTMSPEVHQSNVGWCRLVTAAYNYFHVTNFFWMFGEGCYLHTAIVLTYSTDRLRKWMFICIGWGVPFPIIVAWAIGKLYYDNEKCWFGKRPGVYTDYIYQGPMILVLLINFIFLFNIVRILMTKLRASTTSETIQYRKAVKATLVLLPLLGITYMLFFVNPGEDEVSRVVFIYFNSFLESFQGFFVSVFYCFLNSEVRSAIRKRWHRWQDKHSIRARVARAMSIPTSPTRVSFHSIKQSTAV
Procedure, shortened: (§1)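 Single-subtype CRFR cells, peptide vs vehicle, cAMP via CRE-reporter or lysate assay; background from other CRFR type subtracted if present.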

CRF2R = target: T2, CRF2R (Homo sapiens, UniProt Q13324); test: CRF2R agonist activity (EC50, Emax), called comparative CRF binding; format: cell-based
T2 sequence (Q13324 1-411): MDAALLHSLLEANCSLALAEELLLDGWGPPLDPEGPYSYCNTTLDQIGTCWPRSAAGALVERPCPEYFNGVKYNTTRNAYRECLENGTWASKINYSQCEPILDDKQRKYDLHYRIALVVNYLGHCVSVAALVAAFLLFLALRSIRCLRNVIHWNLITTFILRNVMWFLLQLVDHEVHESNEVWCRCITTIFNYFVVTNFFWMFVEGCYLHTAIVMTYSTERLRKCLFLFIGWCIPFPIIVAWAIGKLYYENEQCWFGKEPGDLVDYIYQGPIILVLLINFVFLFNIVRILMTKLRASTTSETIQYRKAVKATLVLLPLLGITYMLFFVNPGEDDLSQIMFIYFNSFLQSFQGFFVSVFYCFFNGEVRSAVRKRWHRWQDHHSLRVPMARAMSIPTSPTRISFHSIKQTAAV
Procedure, shortened: as §1

## CC[C@H](C)[C@H](NC(=O)[C@@H](NC(=O)[C@H](CC(=O)O)NC(=O)[C@H](CC(C)C)NC(=O)[C@H](CC(C)C)NC(=O)[C@H](CC(C)C)NC(=O)[C@H](CCCNC(=N)N)NC(=O)[C@H](CC(N)=O)NC(=O)[C@H](CC(N)=O)NC(=O)[C@H](C)NC(=O)[C@H](C)NC(=O)[C@H](CCC(N)=O)NC(=O)[C@H](CCC(N)=O)NC(=O)[C@H](CCCCN)NC(=O)[C@H](CCC(=O)O)NC(=O)[C@H](CCCCN)NC(=O)[C@H](CCC(=O)O)NC(=O)[C@H](CCC(N)=O)NC(=O)[C@H](CCCCN)NC(=O)[C@H](CCC(=O)O)NC(=O)[C@@H](NC(=O)[C@H](CCC(=O)O)NC(=O)[C@@H](NC(=O)[C@H](CCSC)NC(=O)[C@H](CCCCN)NC(=O)[C@H](CCCNC(=N)N)NC(=O)[C@H](CC(C)C)NC(=O)[C@H](CC(C)C)NC(=O)[C@H](Cc1c[nH]c2ccccc12)NC(=O)[C@@H](NC(=O)[C@@H]1CCCN1C(=O)[C@H](CC(C)C)NC(=O)[C@H](CC(=O)O)NC(=O)[C@@H](NC(=O)[C@H](CO)NC(=O)[C@@H](NC(=O)[C@@H]1CCCN1C(=O)[C@@H]1CCCN1C(=O)CNC(=O)[C@@H]1CCC(=O)N1)[C@@H](C)CC)[C@@H](C)CC)[C@@H](C)CC)[C@@H](C)CC)[C@@H](C)CC)[C@@H](C)O)C(N)=O [compound 192]
CRF1R
  EC50: 562 nM
CRF2R
  EC50: 66.8 nM

## CC[C@H](C)[C@H](NC(=O)[C@@H](NC(=O)[C@H](CC(=O)O)NC(=O)[C@H](CC(C)C)NC(=O)[C@H](CC(C)C)NC(=O)[C@H](CC(C)C)NC(=O)[C@H](CCCNC(=N)N)NC(=O)[C@H](CC(N)=O)NC(=O)[C@H](CC(N)=O)NC(=O)[C@H](C)NC(=O)[C@H](C)NC(=O)[C@H](CCC(N)=O)NC(=O)[C@H](CCC(N)=O)NC(=O)[C@H](CCCCN)NC(=O)[C@H](CCC(=O)O)NC(=O)[C@H](CCCCN)NC(=O)[C@H](CCC(=O)O)NC(=O)[C@H](CCC(N)=O)NC(=O)[C@H](CCCCN)NC(=O)[C@H](CCC(=O)O)NC(=O)[C@@H](NC(=O)[C@H](CCC(=O)O)NC(=O)[C@@H](NC(=O)[C@H](CCSC)NC(=O)[C@H](CCCCN)NC(=O)[C@H](CCCNC(=N)N)NC(=O)[C@H](CC(C)C)NC(=O)[C@H](CC(C)C)NC(=O)[C@H](Cc1ccc(O)cc1)NC(=O)[C@@H](NC(=O)[C@@H]1CCCN1C(=O)[C@H](CC(C)C)NC(=O)[C@H](CC(=O)O)NC(=O)[C@@H](NC(=O)[C@H](CO)NC(=O)[C@@H](NC(=O)[C@@H]1CCCN1C(=O)[C@@H]1CCCN1C(=O)CNC(=O)[C@@H]1CCC(=O)N1)[C@@H](C)CC)[C@@H](C)CC)C(C)C)[C@@H](C)CC)[C@@H](C)CC)[C@@H](C)O)C(N)=O [compound 39]
CRF1R
  EC50: ≥ 1000 nM
CRF2R
  EC50: 58.2 nM

## CC[C@H](C)[C@H](NC(=O)[C@@H](NC(=O)[C@H](C)NC(=O)[C@H](CC(C)C)NC(=O)[C@H](CC(C)C)NC(=O)[C@H](CC(C)C)NC(=O)[C@H](C)NC(=O)[C@H](CC(N)=O)NC(=O)[C@H](CC(N)=O)NC(=O)[C@H](C)NC(=O)[C@H](C)NC(=O)[C@H](CCC(N)=O)NC(=O)[C@H](CCC(N)=O)NC(=O)[C@H](CCCCN)NC(=O)[C@H](CCC(=O)O)NC(=O)[C@H](CCCCN)NC(=O)[C@H](CCC(=O)O)NC(=O)[C@H](CCC(N)=O)NC(=O)[C@H](CCCCN)NC(=O)[C@H](CCC(=O)O)NC(=O)[C@@H](NC(=O)[C@H](CCC(=O)O)NC(=O)[C@@H](NC(=O)[C@H](CCSC)NC(=O)[C@H](CCCCN)NC(=O)[C@H](CCCNC(=N)N)NC(=O)[C@H](CC(C)C)NC(=O)[C@H](CC(C)C)NC(=O)[C@H](Cc1ccc(O)cc1)NC(=O)[C@H](Cc1ccccc1)NC(=O)[C@@H]1CCCN1C(=O)[C@H](CC(C)C)NC(=O)[C@H](CC(=O)O)NC(=O)[C@@H](NC(=O)[C@H](CO)NC(=O)[C@@H](NC(=O)[C@@H]1CCCN1C(=O)[C@@H]1CCCN1C(=O)CNC(=O)[C@@H]1CCC(=O)N1)[C@@H](C)CC)[C@@H](C)CC)[C@@H](C)CC)[C@@H](C)CC)[C@@H](C)O)C(N)=O [compound 231]
CRF1R
  EC50: 94 nM
CRF2R
  EC50: 5.9 nM

## CC[C@H](C)[C@H](NC(=O)[C@@H](NC(=O)[C@H](CC(=O)O)NC(=O)[C@H](CC(C)C)NC(=O)[C@H](CC(C)C)NC(=O)[C@H](CC(C)C)NC(=O)[C@H](CCCNC(=N)N)NC(=O)[C@H](CC(N)=O)NC(=O)[C@H](CC(N)=O)NC(=O)[C@H](C)NC(=O)[C@H](C)NC(=O)[C@H](CCC(N)=O)NC(=O)[C@H](CCC(N)=O)NC(=O)[C@H](CCCCN)NC(=O)[C@H](CCC(=O)O)NC(=O)[C@H](CCCCN)NC(=O)[C@H](CCC(=O)O)NC(=O)[C@H](CCC(N)=O)NC(=O)[C@H](CCCCN)NC(=O)[C@H](CCC(=O)O)NC(=O)[C@@H](NC(=O)[C@H](CCC(=O)O)NC(=O)[C@@H](NC(=O)[C@H](CCSC)NC(=O)[C@H](CCCCN)NC(=O)[C@H](CCCNC(=N)N)NC(=O)[C@H](CC(C)C)NC(=O)[C@H](CC(C)C)NC(=O)CNC(=O)[C@H](Cc1ccccc1)NC(=O)[C@@H]1CCCN1C(=O)[C@H](CC(C)C)NC(=O)[C@H](CC(=O)O)NC(=O)[C@@H](NC(=O)[C@H](CO)NC(=O)[C@@H](NC(=O)[C@@H]1CCCN1C(=O)[C@@H]1CCCN1C(=O)CNC(=O)[C@@H]1CCC(=O)N1)[C@@H](C)CC)[C@@H](C)CC)[C@@H](C)CC)[C@@H](C)CC)[C@@H](C)O)C(N)=O [compound 68]
CRF1R; read-out: CRF1R EC50
  EC50: > 100 nM
CRF2R; read-out: CRF2R EC50
  EC50: 38.5 nM

## CC[C@H](C)[C@H](NC(=O)[C@H](CCC(=O)O)NC(=O)[C@@H](NC(=O)[C@H](CCSC)NC(=O)[C@H](CCCCN)NC(=O)[C@H](CCCNC(=N)N)NC(=O)[C@H](CC(C)C)NC(=O)[C@H](CC(C)C)NC(=O)[C@H](Cc1ccc(O)cc1)NC(=O)[C@H](CC(C)C)NC(=O)[C@@H]1CCCN1C(=O)[C@H](CC(C)C)NC(=O)[C@H](CC(=O)O)NC(=O)[C@@H](NC(=O)[C@H](CO)NC(=O)[C@@H](NC(=O)[C@@H]1CCCN1C(=O)[C@@H]1CCCN1C(=O)CNC(=O)[C@@H]1CCC(=O)N1)[C@@H](C)CC)[C@@H](C)CC)[C@@H](C)CC)C(=O)N[C@@H](CCC(=O)O)C(=O)N[C@@H](CCCCN)C(=O)N[C@@H](CCC(N)=O)C(=O)N[C@@H](CCC(=O)O)C(=O)N[C@@H](CCCCN)C(=O)N[C@@H](CCC(=O)O)C(=O)N[C@@H](CCCCN)C(=O)N[C@@H](CCC(N)=O)C(=O)N[C@@H](CCC(N)=O)C(=O)N[C@@H](C)C(=O)N[C@H](C(=O)N[C@H](C(=O)N[C@@H](CC(N)=O)C(=O)N[C@@H](C)C(=O)N[C@@H](CCCNC(=N)N)C(=O)N[C@@H](CC(C)C)C(=O)N[C@@H](CC(C)C)C(=O)N[C@@H](CC(=O)O)C(=O)N[C@@H](CCCNC(=N)N)C(=O)N[C@H](C(N)=O)C(C)C)[C@@H](C)O)[C@@H](C)O [compound 243]
CRF1R; read-out: CRF1R EC50
  EC50: 440 nM
CRF2R; read-out: CRF2R EC50
  EC50: 16.8 nM

## CC[C@H](C)[C@H](NC(=O)[C@@H](NC(=O)[C@H](CC(=O)O)NC(=O)[C@H](CC(C)C)NC(=O)[C@H](CC(C)C)NC(=O)[C@H](CC(C)C)NC(=O)[C@H](CCCNC(=N)N)NC(=O)[C@H](CC(N)=O)NC(=O)[C@H](CC(N)=O)NC(=O)[C@H](C)NC(=O)[C@H](C)NC(=O)[C@H](CCC(N)=O)NC(=O)[C@H](CCC(N)=O)NC(=O)[C@H](CCCCN)NC(=O)[C@H](CCC(=O)O)NC(=O)[C@H](CCCCN)NC(=O)[C@H](CCC(=O)O)NC(=O)[C@H](CCC(N)=O)NC(=O)[C@H](CCCCN)NC(=O)[C@H](CCC(=O)O)NC(=O)[C@@H](NC(=O)[C@H](CCC(=O)O)NC(=O)[C@@H](NC(=O)[C@H](CC(C)C)NC(=O)[C@@H](NC(=O)[C@H](CCCNC(=N)N)NC(=O)[C@H](CC(C)C)NC(=O)[C@H](CC(C)C)NC(=O)[C@H](CCC(N)=O)NC(=O)[C@H](Cc1ccccc1)NC(=O)[C@@H]1CCCN1C(=O)[C@H](CC(C)C)NC(=O)[C@H](CC(=O)O)NC(=O)[C@@H](NC(=O)[C@H](CO)NC(=O)[C@@H](NC(=O)[C@@H]1CCCN1C(=O)[C@@H]1CCCN1C(=O)CNC(=O)[C@@H]1CCC(=O)N1)[C@@H](C)CC)[C@@H](C)CC)[C@@H](C)CC)[C@@H](C)CC)[C@@H](C)CC)[C@@H](C)O)C(N)=O [compound 255]
CRF1R
  EC50: 33.3 nM
CRF2R
  EC50: 7 nM

## CC[C@H](C)[C@H](NC(=O)[C@@H](NC(=O)[C@H](CC(=O)O)NC(=O)[C@H](CC(C)C)NC(=O)[C@H](CC(C)C)NC(=O)[C@H](CC(C)C)NC(=O)[C@H](CCCNC(=N)N)NC(=O)[C@H](CC(N)=O)NC(=O)[C@H](CC(N)=O)NC(=O)[C@H](C)NC(=O)[C@H](C)NC(=O)[C@H](CCC(N)=O)NC(=O)[C@H](CCC(N)=O)NC(=O)[C@H](CCCCN)NC(=O)[C@H](CCC(=O)O)NC(=O)[C@H](CCCCN)NC(=O)[C@H](CCC(=O)O)NC(=O)[C@H](CCC(N)=O)NC(=O)[C@H](CCCCN)NC(=O)[C@H](CCC(=O)O)NC(=O)[C@@H](NC(=O)[C@H](CCC(=O)O)NC(=O)[C@@H](NC(=O)[C@H](CCSC)NC(=O)[C@H](CCCCN)NC(=O)[C@H](CCCNC(=N)N)NC(=O)[C@H](CC(C)C)NC(=O)[C@H](CC(C)C)NC(=O)[C@H](Cc1ccccc1)NC(=O)[C@@H](NC(=O)[C@@H]1CCCN1C(=O)[C@H](CC(C)C)NC(=O)[C@H](CC(=O)O)NC(=O)[C@@H](NC(=O)[C@H](CO)NC(=O)[C@@H](NC(=O)[C@@H]1CCCN1C(=O)[C@@H]1CCCN1C(=O)CNC(=O)[C@@H]1CCC(=O)N1)[C@@H](C)CC)[C@@H](C)CC)[C@@H](C)O)[C@@H](C)CC)[C@@H](C)CC)[C@@H](C)O)C(N)=O [compound 44]
CRF1R; read-out: CRF1R EC50
  EC50: 944 nM
CRF2R; read-out: CRF2R EC50
  EC50: 19.1 nM

Read-outs that look alike come from different tables or passages of the source.
